Measured values taken from patent US20220323409A1, “MODIFIED RELEASE FORMULATIONS AND USES THEREOF” (SUNOVION PHARMACEUTICALS INC., priority 2019, published 2022).

Amino acid sequences for entries named in this document (tags omitted).
UniProt P34969, whole entry: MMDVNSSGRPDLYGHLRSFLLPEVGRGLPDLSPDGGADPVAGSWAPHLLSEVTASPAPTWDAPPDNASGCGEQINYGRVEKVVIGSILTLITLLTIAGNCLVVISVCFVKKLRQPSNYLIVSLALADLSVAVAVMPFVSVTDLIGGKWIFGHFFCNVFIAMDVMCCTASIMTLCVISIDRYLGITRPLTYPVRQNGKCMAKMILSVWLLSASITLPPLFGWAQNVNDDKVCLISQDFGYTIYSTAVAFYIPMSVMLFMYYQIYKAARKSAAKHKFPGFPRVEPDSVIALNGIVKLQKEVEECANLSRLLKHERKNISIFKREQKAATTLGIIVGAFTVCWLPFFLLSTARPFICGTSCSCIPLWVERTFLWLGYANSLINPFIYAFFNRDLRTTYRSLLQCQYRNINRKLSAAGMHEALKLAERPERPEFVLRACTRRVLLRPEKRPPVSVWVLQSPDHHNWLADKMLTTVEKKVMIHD

Target: human serotonin 5-HT7 receptors (Homo sapiens, UniProt P34969)
Settings: FIG. 1B

Structure (SMILES): CCN1CCC[C@@H]1CNC(=O)c1cc(S(=O)(=O)CC)c(N)cc1OC [(R)-amisulpride, R-4-Amino-N-[(1-ethyl-2-pyrrolidinyl)methyl]-5-(ethylsulfonyl)-2-methoxybenzamide]
- 5-HT7 antagonism of (R)-amisulpride relative to (S)-amisulpride: about 300 fold
- relative potency of the enantiomers, % inhibition of serotonin 5-HT7 binding (3 independent determinations): more potent
